Assay results as given in ChEMBL document CHEMBL1268971, “4,5-Dihydro-1H-pyrazolo[4,3-h]quinazolines as potent and selective Polo-like kinase 1 (PLK1) inhibitors” (Bioorg Med Chem Lett, 2010).

Amino acid sequences for entries named in this document (tags omitted).
UniProt P53350, whole entry: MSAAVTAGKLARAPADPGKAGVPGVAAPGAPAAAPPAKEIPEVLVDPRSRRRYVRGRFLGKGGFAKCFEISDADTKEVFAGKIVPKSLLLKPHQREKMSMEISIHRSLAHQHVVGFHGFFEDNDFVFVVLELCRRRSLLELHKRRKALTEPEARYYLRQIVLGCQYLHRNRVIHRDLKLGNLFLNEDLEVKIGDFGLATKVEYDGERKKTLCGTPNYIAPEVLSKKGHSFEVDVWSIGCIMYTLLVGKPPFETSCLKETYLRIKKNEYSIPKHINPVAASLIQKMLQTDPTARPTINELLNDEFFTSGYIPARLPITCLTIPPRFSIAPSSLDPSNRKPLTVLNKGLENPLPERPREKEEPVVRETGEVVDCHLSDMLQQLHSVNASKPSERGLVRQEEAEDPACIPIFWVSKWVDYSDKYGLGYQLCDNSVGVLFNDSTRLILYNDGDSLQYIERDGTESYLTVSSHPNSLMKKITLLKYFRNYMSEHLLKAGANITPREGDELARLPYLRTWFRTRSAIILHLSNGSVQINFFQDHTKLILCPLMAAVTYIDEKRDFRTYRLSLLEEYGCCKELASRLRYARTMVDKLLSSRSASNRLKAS

Target: Serine/threonine-protein kinase PLK1 (Homo sapiens, UniProt P53350)

IC50: 3 nM
Structure (SMILES): CN1CCN(c2ccc(OC(F)(F)F)c(Nc3ncc4c(n3)-c3c(c(C(N)=O)nn3C)CC4)c2)CC1
